Measurements as given in patent publication US20220218639A1.

Assays:
[1] = target: T1, δ-plasmin (Homo sapiens, UniProt P00747, DEL181-559); experiment: S-2251 inhibition assay (Dixon plot), δ-plasmin; type: biochemical; conditions: S-2251 100, 350, 750 μM, enzyme 1.0 μg/mL, PBS pH 7.4, unit inferred
T1 construct: made in house; host or cells: E. coli (T7 expression system, pET 24b(+))

[2] = target: plasmin (Homo sapiens, UniProt P00747); experiment: S-2251 inhibition assay (Dixon plot), plasmin; type: biochemical; design: purchased Sigma-Aldrich; conditions: S-2251 100, 350, 750 μM, enzyme 1.0 μg/mL, PBS pH 7.4, unit inferred
Description: Enzyme Kinetic and Inhibition Assays. All enzymatic assays were conducted in phosphate buffered saline (PBS, pH 7.4) at 25° C. on a Molecular Devices SpectraMax Plus 96 well plate reader. The S-2251 assay took advantage of a shift in absorbance of the substrate upon cleaving that could be monitored at a wavelength of 405 nm to determine enzyme kinetics as well as competitive inhibition Ki values for plasmin and its derivatives. KM, Vmax and Kcat were determined using a Lineweaver-Burke plot in which the concentration of plasmin (1.0 μg/mL) was held constant across a range of S-2251 substrate concentrations (0-750 μM) where the y-intercept=1/Vmax and slope=KM/Vmax. Initial velocities were determined by the slope of the first 60 seconds of reaction with the S-2251 substrate. […]
Inhibition Assays: Inhibition assays were carried out at a fixed plasmin concentration in the presence of a range of small molecule inhibitor concentrations from (0-1500 μM) and at least three different S-2251 substrate concentrations ranging from (0-750 μM). Ki values for both full length/native plasmin (sigma plasmin) and delta-plasmin for the small molecule inhibitors and nanoparticles were calculated based on the x-axis value at the negative intersection point of the inhibition curves at the different S-2251 substrate concentrations at a constant plasmin concentration. […]

`N=C(N)c1ccccc1` [Benzamidine] gave a Ki [1] of 161 ± 11.7 µM and a Ki [2] of 32.2 ± 3 µM.
